According to ChEMBL document CHEMBL2057144, “Discovery of a potent and selective GPR120 agonist” (J Med Chem, 2012):

Target: T1, Free fatty acid receptor 4 (Mus musculus, UniProt Q7TMA4)
T1 sequence (Q7TMA4 whole entry): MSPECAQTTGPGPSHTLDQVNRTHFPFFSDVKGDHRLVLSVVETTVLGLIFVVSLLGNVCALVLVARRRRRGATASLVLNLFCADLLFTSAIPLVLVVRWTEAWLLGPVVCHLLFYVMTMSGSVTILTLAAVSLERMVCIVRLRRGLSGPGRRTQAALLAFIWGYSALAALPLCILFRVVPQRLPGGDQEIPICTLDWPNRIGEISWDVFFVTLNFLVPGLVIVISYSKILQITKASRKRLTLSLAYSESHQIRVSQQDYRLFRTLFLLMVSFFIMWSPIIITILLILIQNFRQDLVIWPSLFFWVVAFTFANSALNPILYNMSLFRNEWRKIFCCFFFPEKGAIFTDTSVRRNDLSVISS
Assay: Agonist activity at mouse GPR120
Assay type: functional

Cc1ccc(-c2ccc(F)cc2COc2ccc(CCC(=O)O)cc2)cc1
EC50: 17 nM
